Results on 1 molecule are retold here after US9573887B2, “Naphthalene derivative” (Daito Chemix Corporation, priority 2010, dated 2017).

Sequences of proteins named here, by UniProt entry; tags and fusion partners are left off.
UniProt Q01853, whole entry: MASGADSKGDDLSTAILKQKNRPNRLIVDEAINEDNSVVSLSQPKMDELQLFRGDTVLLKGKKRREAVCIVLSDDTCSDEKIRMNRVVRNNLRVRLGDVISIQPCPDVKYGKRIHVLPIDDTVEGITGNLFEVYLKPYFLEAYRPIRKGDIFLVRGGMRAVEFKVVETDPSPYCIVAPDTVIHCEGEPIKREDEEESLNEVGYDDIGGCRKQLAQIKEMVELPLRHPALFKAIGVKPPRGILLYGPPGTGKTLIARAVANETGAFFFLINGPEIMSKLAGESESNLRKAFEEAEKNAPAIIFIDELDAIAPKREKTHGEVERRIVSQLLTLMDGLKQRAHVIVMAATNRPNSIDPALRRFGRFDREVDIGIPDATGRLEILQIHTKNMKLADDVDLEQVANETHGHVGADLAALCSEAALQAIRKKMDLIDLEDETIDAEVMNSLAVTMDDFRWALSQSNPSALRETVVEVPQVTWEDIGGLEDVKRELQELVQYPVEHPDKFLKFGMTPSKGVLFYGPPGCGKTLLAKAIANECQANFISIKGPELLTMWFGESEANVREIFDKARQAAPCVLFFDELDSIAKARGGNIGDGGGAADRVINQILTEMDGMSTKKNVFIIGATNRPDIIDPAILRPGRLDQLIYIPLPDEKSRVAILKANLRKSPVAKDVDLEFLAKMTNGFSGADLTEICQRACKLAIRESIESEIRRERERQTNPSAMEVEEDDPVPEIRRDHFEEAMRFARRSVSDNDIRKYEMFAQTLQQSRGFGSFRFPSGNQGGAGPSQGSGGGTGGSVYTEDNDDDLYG

pIC50: −log10 of the molar value.

For this assay, the target named is Mouse VCP (Mus musculus, UniProt Q01853). Description: ATPase activity of purified His-tagged VCP, [γ-32P]ATP, liberated phosphate by liquid scintillation. The format is biochemical. The following applies: compounds of Examples; ATPase inhibitory activity; 500 ng VCP, 100 μM ATP, 37° C., 10 minutes; tested form: Na salt.

Take `COc1ncc(N=Nc2cc(S(=O)(=O)O)c3ccccc3c2N)cc1-c1ccccc1`: the pIC50 (in general, −log10 of the IC50, conventionally taken in molar units) was 6.33.
